Laboratory results reported in patent US9532519B2, “Plant growth regulator and use thereof” (Japan Science and Technology Agency, priority 2006, dated 2017).

Tested on: transformants to which the gFBA gene was introduced
Settings: liquid fertilizers at same concentrations in terms of S amount

SMILES | effect of increasing the seed weight (saturation)
N[C@@H](CCC(=O)N[C@@H](CS)C(=O)NCC(=O)O)C(=O)O [GSH, reduced glutathione] | not saturated at tested concentrations
N.N.O=S(=O)(O)O [ammonium sulfate, reference compound] | saturated at a value similar to that of the effect of ammonium nitrate
